The target of the assay is human recombinant AChE (Homo sapiens, UniProt P22303). Nature of the assay: biochemical.

By UniProt entry, the sequences of proteins in these tests, tags left out. Residues count along the entry.
UniProt P22303, 32-614: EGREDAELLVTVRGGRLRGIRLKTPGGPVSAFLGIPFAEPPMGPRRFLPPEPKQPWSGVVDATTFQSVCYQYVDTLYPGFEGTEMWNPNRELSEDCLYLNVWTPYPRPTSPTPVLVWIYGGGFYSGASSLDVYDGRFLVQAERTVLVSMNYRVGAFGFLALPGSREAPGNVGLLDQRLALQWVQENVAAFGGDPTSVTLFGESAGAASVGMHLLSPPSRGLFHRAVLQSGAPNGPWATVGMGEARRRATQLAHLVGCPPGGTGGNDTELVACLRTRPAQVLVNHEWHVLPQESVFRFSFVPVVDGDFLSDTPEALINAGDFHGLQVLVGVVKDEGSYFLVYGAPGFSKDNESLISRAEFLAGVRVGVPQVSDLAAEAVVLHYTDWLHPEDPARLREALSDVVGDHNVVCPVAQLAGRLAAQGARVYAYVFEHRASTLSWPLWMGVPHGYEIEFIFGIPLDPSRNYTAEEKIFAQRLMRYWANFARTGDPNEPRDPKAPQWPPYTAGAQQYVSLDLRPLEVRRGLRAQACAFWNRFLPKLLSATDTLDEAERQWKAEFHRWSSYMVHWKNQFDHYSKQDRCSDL

As a reminder, the IC50 is the midpoint of a concentration-inhibition curve.

Regarding `Cl.c1ccc2c(c1)-c1ccccc1C2NC1CCCCC1` [Compound 3c, N-Cyclohexyl-9H-fluoren-9-amine hydrochloride], the half-maximal inhibitory concentration (IC50) turned out to be 14 ± 0.35 µM.
The same measure for `CCCCNC1c2ccccc2-c2ccccc21.Cl` [Compound 3m, N-Butyl-9H-fluoren-9-amine hydrochloride]: 49.9 ± 3.05 µM.
